Data set [1] has as its system Aminonucleoside nephrose. Description: Therapy for Aminonucleoside nephrose (urine and blood biochemical observations). Type of data set: in vivo, SD type male rats. The note with it: 1000 mg/kg/day oral, 10 days; normal 0.68, renal disease group 0.16; significance *. The method, then:
SD type male rats (weight about 100 g) were fed in each individual room of a metabolism cage under the free water and feed supply.
The rats were classified as the normal group for eight rats, the renal disease group for eight rats and the therapy group for eight rats.
0.3% Aminoucleoside aqueous solution (hereinafter referring to as AN) was administrated by intramuscular injection at a dose of 0.3 ml per 100 g of the rat.
The administration was continued from the 1st day to the 14th day at one time per day.
For the therapy group, methyl methionine sulfonium chloride was administrated by the oral dose at a dose of 1000 mg/kg (in a form of 1.0 ml per 100 g of the weight of rat) at one time per day for 10 days with AN from 5th day when the increase of the amount of urine protein was found.
The data in Tables are average value for eight rats in each group.
The difference between the renal disease group and the therapy group was significant. The symbol * means the existence of significant difference in 5% of the level of significance and the symbol (*) means the existence of significant difference in 5 to 1% of the level of significance. The symbol -- means non-significant difference.

In data set [2] the test system is mouse. Description: Toxicity test (LD50). On the set-up: species or system ddY type mice. The note with it: in vivo, 72 h. Here is the method: (§1) Methyl methionine sulfonium chloride was dissolved in each distilled water at various concentration to give 0.2 ml per 10 g of mouse.
(§2) The test was carried out by the oral dose and the intraperitoneal injection of each solution in 10 ddY type male mice and 10 ddY femal mice. The results after 72 hours from the administration were observed. Probit analysis was used for statistical treatment of mortality.

The nature of data set [3]: Toxicity test (LD50). The note with it: mouse, in vivo, LD50. On the set-up: species or system ddY type mice. Here is the method:
as §1, §2

Usually LD50 stands for the dose expected to kill half of the subjects tested.

Turning to `C[S+](C)CCC(N)C(=O)O` (centres unmarked) [Methyl methionine sulfonium chloride], the “Serum Albumin/Globulin ratio” value in data set [1] is 0.41. Further, the figures for the LD50 in data set [2] (ip) and in data set [2] (po) were 7910 mg/kg and 11255 mg/kg, respectively. The LD50 at 72 h in data set [3] (ip) stood at 8140 mg/kg; in data set [3] (po), 11900 mg/kg.

The values are drawn from patent US4122189A, “Medicine for renal diseases” (priority 1976, dated 1978).
